Experimental data taken from patent publication US20240141059A1 (Bristol-Myers Squibb, published 2024).

T1: human GITR on cells (human, UniProt Q9Y5U5 26-241)
T1 sequence (looked up): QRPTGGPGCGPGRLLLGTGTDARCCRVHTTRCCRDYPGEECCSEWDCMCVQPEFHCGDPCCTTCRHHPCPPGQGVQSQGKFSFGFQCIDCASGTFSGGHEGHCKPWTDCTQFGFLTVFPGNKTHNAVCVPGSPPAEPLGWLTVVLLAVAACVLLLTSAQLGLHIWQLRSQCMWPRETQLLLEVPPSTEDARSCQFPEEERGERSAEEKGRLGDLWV

T2: human GITR (human, UniProt Q9Y5U5 26-241)
T2 sequence (looked up): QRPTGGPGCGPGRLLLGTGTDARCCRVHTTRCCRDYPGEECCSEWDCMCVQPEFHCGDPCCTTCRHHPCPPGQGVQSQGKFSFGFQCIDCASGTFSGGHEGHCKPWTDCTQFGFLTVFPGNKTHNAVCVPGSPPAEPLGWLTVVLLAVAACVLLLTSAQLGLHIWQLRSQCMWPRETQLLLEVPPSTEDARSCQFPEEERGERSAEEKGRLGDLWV


How the values were obtained:
human GITR on cells = molecular target: T1, human GITR on cells; assay: cell-based or functional assay
human GITR = molecular target: T2, human GITR; assay: cell-based or functional assay

Binder	NFKB signaling EC50 (human GITR on cells)	NFKB signaling (phospho-p65), CD4+ T cells, EC50 (human GITR)	NFKB signaling (phospho-p65), CD4+ T cells, Emax (human GITR)	NFKB signaling (phospho-p65), CD8+ T cells, EC50 (human GITR)	NFKB signaling (phospho-p65), CD8+ T cells, Emax (human GITR)
anti-GITR-IgG2-IgG1 (antibody) heavy: QVQLVESGGGVVQPGRSLRLSCAASGFTFSSYGMHWVRQAPGKGLEWVAVIWYEGSNKYYADSVKGRFTISRDNSKNTLYLQMNSLRAEDTAVYYCARGGSMVRGDYYYGMDVWGQGTTVTVSSASTKGPSVFPLAPCSRSTSESTAALGCLVKDYFPEPVTVSWNSGALTSGVHTFPAVLQSSGLYSLSSVVTVPSSNFGTQTYTCNVDHKPSNTKVDKTVERKCCVE[left out - human IgG1 Fc] light: AIQLTQSPSSLSASVGDRVTITCRASQGISSALAWYQQKPGKAPKLLIYDASSLESGVPSRFSGSGSGTDFTLTISSLQPEDFATYYCQQFNSYPYTFGQGTKLEIKRTVAAPSVFIFPPSDEQLKSGTASVVCLLNNFYPREAKVQWKVDNALQSGNSQESVTEQDSKDSTYSLSSTLTLSKADYEKHKVYACEVTHQGLSSPVTKSFNRGEC	~10 nM	–	–	–	–
anti-GITR-IgG1 (antibody) heavy: QVQLVESGGGVVQPGRSLRLSCAASGFTFSSYGMHWVRQAPGKGLEWVAVIWYEGSNKYYADSVKGRFTISRDNSKNTLYLQMNSLRAEDTAVYYCARGGSMVRGDYYYGMDVWGQGTTVTVSSASTKGPSVFPLAPSSKSTSGGTAALGCLVKDYFPEPVTVSWNSGALTSGVHTFPAVLQSSGLYSLSSVVTVPSSSLGTQTYICNVNHKPSNTKVDKKV[left out - human IgG1 Fc] light: AIQLTQSPSSLSASVGDRVTITCRASQGISSALAWYQQKPGKAPKLLIYDASSLESGVPSRFSGSGSGTDFTLTISSLQPEDFATYYCQQFNSYPYTFGQGTKLEIKRTVAAPSVFIFPPSDEQLKSGTASVVCLLNNFYPREAKVQWKVDNALQSGNSQESVTEQDSKDSTYSLSSTLTLSKADYEKHKVYACEVTHQGLSSPVTKSFNRGEC	~10 nM	–	–	–	–
GITR.6.G2.G1f (antibody, human IgG2, kappa) heavy: QVQLVESGGGVVQPGRSLRLSCAASGFTFSSYGMHWVRQAPGKGLEWVAVIWYEGSNKYYADSVKGRFTISRDNSKNTLYLQMNSLRAEDTAVYYCARGGSMVRGDYYYGMDVWGQGTTVTVSSASTKGPSVFPLAPCSRSTSESTAALGCLVKDYFPEPVTVSWNSGALTSGVHTFPAVLQSSGLYSLSSVVTVPSSNFGTQTYTCNVDHKPSNTKVDKTVERKCCVE[left out - human IgG1 Fc] light: AIQLTQSPSSLSASVGDRVTITCRASQGISSALAWYQQKPGKAPKLLIYDASSLESGVPSRFSGSGSGTDFTLTISSLQPEDFATYYCQQFNSYPYTFGQGTKLEIKRTVAAPSVFIFPPSDEQLKSGTASVVCLLNNFYPREAKVQWKVDNALQSGNSQESVTEQDSKDSTYSLSSTLTLSKADYEKHKVYACEVTHQGLSSPVTKSFNRGEC	–	9 nM	100%	3.77 nM	92%
GITR.6-IgG1f (antibody) heavy: QVQLVESGGGVVQPGRSLRLSCAASGFTFSSYGMHWVRQAPGKGLEWVAVIWYEGSNKYYADSVKGRFTISRDNSKNTLYLQMNSLRAEDTAVYYCARGGSMVRGDYYYGMDVWGQGTTVTVSSASTKGPSVFPLAPSSKSTSGGTAALGCLVKDYFPEPVTVSWNSGALTSGVHTFPAVLQSSGLYSLSSVVTVPSSSLGTQTYICNVNHKPSNTKVDKRV[left out - human IgG1 Fc] light: AIQLTQSPSSLSASVGDRVTITCRASQGISSALAWYQQKPGKAPKLLIYDASSLESGVPSRFSGSGSGTDFTLTISSLQPEDFATYYCQQFNSYPYTFGQGTKLEIKRTVAAPSVFIFPPSDEQLKSGTASVVCLLNNFYPREAKVQWKVDNALQSGNSQESVTEQDSKDSTYSLSSTLTLSKADYEKHKVYACEVTHQGLSSPVTKSFNRGEC	–	7.3 nM	–	20.1 nM	–
